From ChEMBL document CHEMBL3091365, “Optimization of O3-acyl kojic acid derivatives as potent and selective human neutrophil elastase inhibitors” (J Med Chem, 2013)

Biological target: T1, Neutrophil elastase (Homo sapiens, UniProt P08246)
T1 sequence (P08246 whole entry): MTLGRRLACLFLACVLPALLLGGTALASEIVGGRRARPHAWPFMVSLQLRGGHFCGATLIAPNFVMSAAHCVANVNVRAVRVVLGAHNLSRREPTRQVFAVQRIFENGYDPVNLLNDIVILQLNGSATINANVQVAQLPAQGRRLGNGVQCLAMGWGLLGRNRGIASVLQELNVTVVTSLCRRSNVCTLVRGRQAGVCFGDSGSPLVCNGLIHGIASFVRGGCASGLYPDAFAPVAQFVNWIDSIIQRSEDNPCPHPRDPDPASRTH
Assay: Inhibition of human neutrophil elastase using MeO-Suc-Ala-Ala-Pro-Val-AMC as substrate incubated for 30 mins prior to substrate addition measured for 30 mins by fluorescence assay

IC50: 10 nM
SMILES: CC(C)(C)C(=O)Oc1ccc(S(=O)(=O)Nc2ccccc2C(=O)NCC(=O)O)cc1
